Assay [1] deals with Ramos cells. Briefly: Cytotoxicity in Ramos cells. As to conditions: read-out: Ramos Cell EC50, detection limit EC50=16 μM. The method, then:
(§1) Exemplary compounds described in above Examples were tested for activity against F1F0-ATPase by measuring the ability of the compounds to inhibit ATP synthesis. In addition, the compounds were assessed for cytotoxicity in Ramos cells. Inhibition of F1F0-ATPase activity in synthesizing ATP and cytotoxicity in Ramos cells were measured according to the procedures described in K. M. Johnson et al. Chemistry & Biology 2005, 12, 485-496. […] In the column titled ATP Syn IC50 in Table 4, the symbol “+” refers to an IC50>16 μm, “++” refers to an IC50 from 5 to 16 μm, and “+++” refers to an IC50 less than 5 μm. In the column titled Ramos Cell EC50 in Table 4, the symbol “+” refers to an EC50>16 μm, “++” refers to an EC50 from 5 to 16 μm, and “+++” refers to an EC50 less than 5 μm. The detection limit of the assay measuring inhibition of F1F0-ATPase activity was IC50=16 μM. The detection limit of the assay measuring cytotoxicity in Ramos cells was EC50=16 μM.

The target of assay [2] is F1F0-ATPase (Bos taurus, UniProt P13621). Briefly: Inhibition of F1F0-ATPase activity in synthesizing ATP. The following applies: read-out: ATP Syn IC50; inhibition of ATP synthesis; detection limit IC50=16 μM. The method, then:
as §1

SMILES strings stand for the structures.

On to `CC(C)(O)CNC(=NC(=O)c1ccc(F)c(F)c1)Nc1n[nH]c2cc(C(F)(F)F)ccc12`, for which the EC50 in assay [1] was more than 16 µM. In addition, the IC50 in assay [2] is more than 16 µM.

As a reminder, the EC50 is the concentration giving half of the maximal effect. Broadly, the IC50 is the concentration at which inhibition is half-maximal.

Values taken from US9920012B2, “Indazole guanidine F1F0-ATPase inhibitors and therapeutic uses thereof” (Lycera Corporation, priority 2012, dated 2018).
